Data published in patent US20050106592A1, “Method for identifying a pharmacologically active substance” (priority 2002, published 2005).

Molecular target: T1, ACE from pig kidney (EC 3.4.15.1) (Sus scrofa, UniProt F1RRW5)
T1 construct: angiotensin-converting-enzyme derived from pig kidney; purchased Sigma; host or cells: pig kidney (tissue-derived enzyme)
T1 sequence (F1RRW5 34-1309): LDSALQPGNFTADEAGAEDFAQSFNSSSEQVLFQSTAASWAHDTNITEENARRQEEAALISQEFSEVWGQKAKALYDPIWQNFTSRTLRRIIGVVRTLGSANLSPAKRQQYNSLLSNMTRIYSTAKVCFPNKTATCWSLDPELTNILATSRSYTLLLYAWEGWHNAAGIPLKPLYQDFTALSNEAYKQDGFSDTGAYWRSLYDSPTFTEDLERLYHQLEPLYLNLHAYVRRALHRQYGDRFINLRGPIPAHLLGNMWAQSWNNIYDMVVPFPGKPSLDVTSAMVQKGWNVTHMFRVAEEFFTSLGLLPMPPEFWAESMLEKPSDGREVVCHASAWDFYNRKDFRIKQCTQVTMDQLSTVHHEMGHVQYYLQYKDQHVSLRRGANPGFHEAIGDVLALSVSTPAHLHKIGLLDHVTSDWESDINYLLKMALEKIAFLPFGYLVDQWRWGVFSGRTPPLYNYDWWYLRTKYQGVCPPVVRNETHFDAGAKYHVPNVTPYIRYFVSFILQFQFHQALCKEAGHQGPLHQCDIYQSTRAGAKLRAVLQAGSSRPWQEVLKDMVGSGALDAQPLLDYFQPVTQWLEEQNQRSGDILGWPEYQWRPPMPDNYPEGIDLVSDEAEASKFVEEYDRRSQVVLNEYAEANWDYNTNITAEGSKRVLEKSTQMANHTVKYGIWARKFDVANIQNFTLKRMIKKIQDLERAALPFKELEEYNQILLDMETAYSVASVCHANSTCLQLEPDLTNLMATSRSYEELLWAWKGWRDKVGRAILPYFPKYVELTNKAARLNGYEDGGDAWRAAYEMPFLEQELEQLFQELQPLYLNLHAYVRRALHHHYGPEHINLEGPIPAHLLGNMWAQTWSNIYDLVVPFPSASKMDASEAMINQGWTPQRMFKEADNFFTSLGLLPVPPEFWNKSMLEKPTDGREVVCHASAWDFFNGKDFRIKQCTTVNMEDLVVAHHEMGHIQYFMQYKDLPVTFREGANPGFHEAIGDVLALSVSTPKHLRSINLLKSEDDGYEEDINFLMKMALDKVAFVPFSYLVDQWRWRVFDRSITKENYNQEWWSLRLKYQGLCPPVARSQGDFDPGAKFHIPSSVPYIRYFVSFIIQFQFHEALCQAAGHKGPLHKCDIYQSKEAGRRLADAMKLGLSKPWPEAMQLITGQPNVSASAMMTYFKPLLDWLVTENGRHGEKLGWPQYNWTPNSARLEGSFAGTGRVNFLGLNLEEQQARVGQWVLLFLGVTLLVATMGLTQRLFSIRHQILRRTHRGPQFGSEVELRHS
Format: biochemical
Settings: Table 2

## CC(C)C[C@H](NC(=O)[C@H](C)NC(=O)[C@H](C)NC(=O)CNC(=O)[C@H](C)NC(=O)[C@H](CCC(=O)O)NC(=O)[C@H](CCC(=O)O)NC(=O)[C@H](CC(N)=O)NC(=O)[C@@H]1CCCN1C(=O)[C@H](CCC(=O)O)NC(=O)[C@H](CO)NC(=O)[C@H](CC(C)C)NC(=O)[C@@H](NC(=O)[C@@H]1CCC(=O)N1)C(C)C)C(=O)N[C@@H](CO)C(=O)N1CCC[C@H]1C(=O)N[C@@H](CC(C)C)C(=O)N1CCC[C@H]1C(=O)N[C@@H](CCC(=O)O)C(=O)N[C@H](C(=O)N1CCC[C@H]1C(=O)N1CCC[C@H]1C(=O)O)C(C)C [Peptide S492]
  IC50: > 300 µM
